US20240218011A1, “GLUCOCORTICOID RECEPTOR AGONISTS AND CONJUGATES THEREOF” (FireFly Bio, Inc., priority 2022, published 2024)

Amino acid sequences for entries named in this document (tags omitted). Residues count along the entry.
UniProt P04150, 524-777 limits assumed: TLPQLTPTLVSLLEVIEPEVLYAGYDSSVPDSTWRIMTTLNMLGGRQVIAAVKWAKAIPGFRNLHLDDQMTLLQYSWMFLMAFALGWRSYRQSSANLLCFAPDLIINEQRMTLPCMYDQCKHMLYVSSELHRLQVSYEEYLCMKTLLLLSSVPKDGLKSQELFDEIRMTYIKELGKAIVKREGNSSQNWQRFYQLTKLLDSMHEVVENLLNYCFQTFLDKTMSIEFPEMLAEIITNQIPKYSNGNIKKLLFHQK

Target: Glucocorticoid Receptor (GR) (Homo sapiens, UniProt P04150)
Assay: GR reporter assay (GR-GAL4 Reporter (Luc)-HEK293 cells, Steady-Glo luciferase)
Assay type: cell-based
Conditions: read-out: GR reporter agonist, 24 hours

C[C@]12C=CC(=O)C=C1CC[C@@H]1[C@@H]2[C@@H](O)C[C@@]2(C)[C@H]1C[C@H]1O[C@@H](c3ccccc3)O[C@]12C(=O)CO
EC50: 2.8 nM
